# Measurements as given in patent US7405223B2, “Treating allergic and inflammatory conditions” (priority 2000, dated 2008).
smiles,measurement,setting,value
Clc1ccc2c(c1)CCc1cccnc1C2=C1CCNCC1 [desloratadine],most frequently reported adverse event,"7.5 mg once daily, occurred exclusively in women of both races",Headache
same,safety and tolerability,7.5 mg orally once daily for 14 days,safe and well tolerated
